Results: US12377083B2 (WUHAN LL SCIENCE AND TECHNOLOGY DEVELOPMENT CO., LTD., priority 2019, dated 2025)

Test system: A2058 (human melanoma cells)
Experiment: A2058 cell scratch (migration) assay with LPA
Assay type: cell-based
Settings: 10 μM LPA, scratch area at 24 h
Method: The activity of the compounds disclosed herein at the cell level in vitro is evaluated by A2058 (human melanoma cells, Beina Bio, BNCC341099) cell scratch assay. The inhibitory activity of the compounds against LPAR1 can be reflected by inhibition of cell scratch healing.
A2058 cells in a T75 cm^2 cell culture flask were digested and gently pipetted into single cells, adjusted to a cell density of 4×10^5 cells/mL, and then seeded into a 24-well plate. After the cell confluence reached 80%, the cell culture plate was taken out and the original medium was discarded. Serum-free medium was then added, and the cells were starved overnight in an incubator (37° C., 5% CO2). The cell culture plate was then taken out, and cell scratches were made along the diameter of the wells using a 200 μL pipette tip. The cell culture plate was then added with 500 μL of serum-free medium and then shaken gently to wash away the residual cells on the scratched surface, and this was repeated twice. The medium was discarded and 500 μL of 1% FBS medium containing the compound was then added, and the mixture was incubated at 37° C. for 30 min. […] Olympus CKX53 was used to observe the scratches, and MShot image analysis system was used to take pictures and measure the scratch area at 0 h. […] Cell migration inhibition rate was calculated according to the following formula: […]

In the case of `Cc1noc(-c2ccc(O[C@H]3CCC[C@H](C(=O)O)C3)cc2)c1COC(=O)N(C)C1CCCC1` (racemic) [Compound 4, (+/−)-(1S,3S)-3-(4-(4-(((cyclopentyl(methyl)carbamoyl)oxy)methyl)-3-methylisoxazol-5-yl)phenoxy)cyclohexane-1-carboxylic Acid], the “Cell migration inhibition rate (%)” value is reported as “B (B: 30-50%)”.
